Results taken from patent US12691096B2, “Drug-controlled systems and uses thereof” (TRUSTEES OF BOSTON UNIVERSITY, priority 2020, dated 2026).

Columns and labels:
dNS3-Cre-PHI = dNS3-Cre-PHI (Hepatitis C virus genotype 1b, UniProt P26663, A1092G/F1173S/K1113A/P1112Q/S1165A); settings: catalytic NS3 S139A mutation (dNS3)
From the text: (§1) For Cre recombinase control in mammalian cells, live cells were gated in the same manner as above and gated for transfection by either a co-transfection marker of pmiRFP670-N1 or inter-plasmatic constitutive expression of iRFP670 under a separate constitutive promoter. Cells were further deemed as GFP positive if their fluorescence intensity was greater than or equal to the top 1% of non-transfected cells. Baseline activation of GFP positive cells was then subtracted using transfection marker only cells as baseline for all measurements.

[1] = target: asunaprevir inducible (AI) NS3 (Hepatitis C virus genotype 1b, UniProt P26663, S1148G/T1080A/V1062M); settings: asunaprevir (1 pM); flow cytometry 48 hours post-drug addition
From the text: To accomplish this, it was sought to make orthogonal inducible Cre recombinases.
as §1

C=C[C@@H]1C[C@]1(NC(=O)[C@@H]1C[C@@H](Oc2ncc(OC)c3ccc(Cl)cc23)CN1C(=O)[C@@H](NC(=O)OC(C)(C)C)C(C)(C)C)C(=O)NS(=O)(=O)C1CC1 [asunaprevir]
Effect of NS3 S139A mutation alone on drug induction of Cre (dNS3-Cre-PHI): retaining asunaprevir induction | Induction of Cre recombination, asunaprevir inducible (AI) construct [1]: strongly induced
